# From patent US9763957B2, “Autotaxin inhibitors” (Novartis AG, priority 2013, dated 2017)
# Target: Recombinant human ATX (Homo sapiens (Human), UniProt Q13822)
# Assay: ATX inhibition assay (choline release, Amplex Red fluorescence)
# Format: biochemical
# Details: ATX 10 nM, LPC 18:1 10 μM, 37° C., 20 min pre-incubation; mean of n≧2
# Procedure: Reagents—LPC (oleoyl (18:1)) was purchased from Avanti Polar Lipids (Alabaster, Ala.) and solubilized in methanol to 20 mM. Amplex Red was obtained from Invitrogen Life Technologies (Paisley, UK) and dissolved in DMSO to 10 mM. Choline oxidase and horseradish peroxidase (HRP) were obtained from Sigma Aldrich (Dorset, UK) and dissolved in HBSS to 20 U/ml and 200 U/ml respectively. All reagents were stored at −20° C. in single use aliquots. All experimental measurements were performed in assay buffer made up immediately prior to use (HBSS, 0.01% BSA essentially fatty acid free).
# PerkinElmer EnVision (Fluorescence Intensity/Absorbance Monochromator) or Tecan Infinite 200 PRO series plate reader was used to detect change in fluorescent intensity.
# Assessing ATX inhibition—ATX activity was determined by measurement of released choline in reactions containing ATX (10 nM), choline oxidase (0.1 U/ml), HRP (100 U/ml), amplex red (50 μM) and LPC 18:1 (10 μM). Compounds of the invention were prepared as 10 point serial dilutions from 1 μM in duplicate and pre-incubated with ATX at 37° C. for 20 minutes prior to the addition of remaining reagents. The liberated choline was measured from changes in fluorescence intensity (λex 530 nm, λem 590 nm) of the product resurofin at 37° C. every 2 minutes over a 40-minute period. ATX activity was measured as a slope of the linear portion of the progress curve, typically between 14 to 24 minutes.
# Data analysis—Slope data was exported to Graphpad prism (Graphpad software, San Diego, Calif.) where data was fitted to equation 1. Y=Bottom+(Top-Bottom)/(1+10^((Log IC50−X)*HillSlope)) Equation 1: […]
row,IC50,Structure (SMILES)
1,18 nM,"Cc1nnn(Cc2cc(C(F)(F)F)ccc2/C=C/C(=O)N2CCCC(F)C2)n1 (single isomer, unassigned) [Example 115a, ((R or S), E)-1-(3-Fluoropiperidin-1-yl)-3-(2-((5-methyl-2H-tetrazol-2-yl)methyl)-4-(trifluoromethyl)phenyl)prop-2-en-1-one]"
2,140 nM,"Cc1nnn(Cc2cc(C(F)(F)F)ccc2/C=C/C(=O)N2CCCC(F)C2)n1 (single isomer, unassigned) [Example 115b, ((R or S), E)-1-(3-Fluoropiperidin-1-yl)-3-(2-((5-methyl-2H-tetrazol-2-yl)methyl)-4-(trifluoromethyl)phenyl)prop-2-en-1-one]"
3,61 nM,"COC1CCCN(C(=O)/C=C/c2ccc(C(F)(F)F)cc2Cn2nnc(C)n2)C1 (single isomer, unassigned) [Example 108b, ((R or S), E)-1-(3-Methoxypiperidin-1-yl)-3-(2-((5-methyl-2H-tetrazol-2-yl)methyl)-4-(trifluoromethyl)phenyl)prop-2-en-1-one]"
4,58 nM,"COC1CCCN(C(=O)/C=C/c2ccc(C(F)(F)F)cc2Cn2nnc(C)n2)C1 (single isomer, unassigned) [Example 108a, ((R or S), E)-1-(3-Methoxypiperidin-1-yl)-3-(2-((5-methyl-2H-tetrazol-2-yl)methyl)-4-(trifluoromethyl)phenyl)prop-2-en-1-one]"
